The assay relates to r(GGGGCC)66. The assay can be described thus: Identification of cellular RNA targets by 1a-CA-biotin pull-down and qRT-PCR (competitive profiling). Type of assay: cell-based. To be noted: (GGGGCC)66-expressing cells; normalized to untreated lysate. Background: In qPCR the cycle at which signal appears reflects the starting amount.

For “2-(5-(6-(4-(4-(bis(2-chloroethyl)amino)phenyl)butanamido)-2-(5-(2-oxohexahydro-1H-thieno[3,4-d]imidazol-4-yl)pentanamido)hexanamido)pentyl)-9-hydroxy-5,11-dimethyl-6H-pyrido[4,3-b]carbazol-2-ium [1a-CA-biotin]”, the “enrichment of r(GGGGCC)66 compared to 18S rRNA in pull-down fractions” value came to 80 fold.

(Values after patent US10465196B2, “Treatment of C9FTD/ALS by targeting RNA expanded repeat sequences” (THE SCRIPPS RESEARCH INSTITUTE, priority 2014, dated 2019).)
